{"sequences": {"note": "Chains of the proteins cited; added tags and fusions are not shown.", "UniProt Q15910, whole entry": "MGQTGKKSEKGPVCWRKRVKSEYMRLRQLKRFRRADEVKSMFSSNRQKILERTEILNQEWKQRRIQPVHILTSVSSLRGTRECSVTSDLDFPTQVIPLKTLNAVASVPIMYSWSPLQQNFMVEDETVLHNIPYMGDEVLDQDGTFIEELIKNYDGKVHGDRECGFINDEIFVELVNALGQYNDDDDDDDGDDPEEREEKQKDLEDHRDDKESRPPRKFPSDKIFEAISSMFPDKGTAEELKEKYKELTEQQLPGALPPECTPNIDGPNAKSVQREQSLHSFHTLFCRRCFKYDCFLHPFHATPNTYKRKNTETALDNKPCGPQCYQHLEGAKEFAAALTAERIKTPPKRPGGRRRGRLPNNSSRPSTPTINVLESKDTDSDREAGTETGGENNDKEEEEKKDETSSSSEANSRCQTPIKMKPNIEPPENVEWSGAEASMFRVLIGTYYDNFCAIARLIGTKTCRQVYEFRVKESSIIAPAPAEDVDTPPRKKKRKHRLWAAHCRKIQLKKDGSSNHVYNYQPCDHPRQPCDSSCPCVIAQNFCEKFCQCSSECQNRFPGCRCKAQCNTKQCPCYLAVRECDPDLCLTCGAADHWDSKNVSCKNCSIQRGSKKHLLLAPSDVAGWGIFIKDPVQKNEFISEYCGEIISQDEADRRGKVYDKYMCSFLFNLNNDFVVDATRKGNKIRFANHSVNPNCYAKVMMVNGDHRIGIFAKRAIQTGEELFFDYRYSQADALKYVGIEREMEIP", "UniProt Q15910, whole entry Y641N": "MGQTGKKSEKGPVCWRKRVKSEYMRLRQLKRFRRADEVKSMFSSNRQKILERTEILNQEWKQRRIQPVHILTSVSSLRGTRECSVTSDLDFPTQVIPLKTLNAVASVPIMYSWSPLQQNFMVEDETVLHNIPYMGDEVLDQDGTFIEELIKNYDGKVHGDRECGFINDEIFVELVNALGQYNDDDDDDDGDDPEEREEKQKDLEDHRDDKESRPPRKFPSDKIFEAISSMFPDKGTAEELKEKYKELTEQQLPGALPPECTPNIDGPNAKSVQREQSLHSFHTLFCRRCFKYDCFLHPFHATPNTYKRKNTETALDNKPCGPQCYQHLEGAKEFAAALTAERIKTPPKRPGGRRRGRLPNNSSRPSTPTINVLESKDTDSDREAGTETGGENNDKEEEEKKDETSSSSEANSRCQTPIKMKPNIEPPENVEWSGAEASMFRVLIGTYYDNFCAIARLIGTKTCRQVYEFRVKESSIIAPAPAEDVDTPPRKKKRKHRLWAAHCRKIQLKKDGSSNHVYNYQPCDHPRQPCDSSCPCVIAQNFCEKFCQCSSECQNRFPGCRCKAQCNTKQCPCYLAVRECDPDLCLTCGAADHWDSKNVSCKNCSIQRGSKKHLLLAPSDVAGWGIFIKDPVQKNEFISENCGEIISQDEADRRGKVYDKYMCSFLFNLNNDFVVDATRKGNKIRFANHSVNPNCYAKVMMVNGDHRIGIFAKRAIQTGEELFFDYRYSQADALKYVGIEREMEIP", "UniProt Q15910, whole entry Y641F": "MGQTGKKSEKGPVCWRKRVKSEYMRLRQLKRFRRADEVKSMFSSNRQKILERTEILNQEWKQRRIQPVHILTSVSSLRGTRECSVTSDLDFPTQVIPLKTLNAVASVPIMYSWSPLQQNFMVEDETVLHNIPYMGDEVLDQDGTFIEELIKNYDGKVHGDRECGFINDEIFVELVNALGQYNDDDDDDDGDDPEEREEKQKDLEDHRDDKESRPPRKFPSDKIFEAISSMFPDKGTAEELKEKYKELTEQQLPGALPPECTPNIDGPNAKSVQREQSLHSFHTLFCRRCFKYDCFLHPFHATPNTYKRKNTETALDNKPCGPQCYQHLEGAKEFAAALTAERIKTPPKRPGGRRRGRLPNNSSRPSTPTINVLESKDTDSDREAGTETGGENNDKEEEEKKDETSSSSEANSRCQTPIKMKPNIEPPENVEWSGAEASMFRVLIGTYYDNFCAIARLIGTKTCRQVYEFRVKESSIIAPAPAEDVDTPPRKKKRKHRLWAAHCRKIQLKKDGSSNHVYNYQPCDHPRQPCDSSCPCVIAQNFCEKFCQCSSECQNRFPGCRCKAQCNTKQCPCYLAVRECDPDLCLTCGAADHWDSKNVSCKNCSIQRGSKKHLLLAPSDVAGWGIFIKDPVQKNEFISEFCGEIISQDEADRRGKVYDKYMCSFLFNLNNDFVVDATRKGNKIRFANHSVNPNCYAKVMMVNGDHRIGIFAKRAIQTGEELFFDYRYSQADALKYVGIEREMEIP"}, "source": "patent US12390472B2", "about": "(SUZHOU SINOVENT PHARMACEUTICALS CO., LTD., priority 2018, dated 2025)", "format_in_all_cases": "biochemical", "key": {"[1]": {"molecular_target": "EZH2 (wt) (Homo sapiens (Human), UniProt Q15910)", "assay": "Test on EZH2 (wt) inhibitory activity ([3H]-SAM Flashplate)"}, "[2]": {"molecular_target": "EZH2 (Y641N) (Homo sapiens (Human), UniProt Q15910, Y641N)", "assay": "Test on EZH2 (Y641N) inhibitory activity"}, "[3]": {"molecular_target": "EZH2 (Y641F) (Homo sapiens (Human), UniProt Q15910, Y641F)", "assay": "Test on EZH2 (Y641F) inhibitory activity"}}}
{"smiles": "CCN(c1cc(O[C@H]2C[C@H](N3CCCCC3)C2)cc(C(=O)NCc2c(OC)cc(C)[nH]c2=O)c1C)C1CCC(F)(F)CC1", "note": "[Example 91, 3-((4,4-difluorocyclohexyl)(ethyl)amino)-N-((4-methoxy-6-methyl-2-oxo-1,2-dihydropyridin-3-yl)methyl)-2-methyl-5-(trans-3-(piperidin-1-yl)cyclobutoxy)benzamide]", "values": [{"measurement": "IC50", "setting": "[1]", "result": 0.7, "unit": "nM"}, {"measurement": "IC50", "setting": "[2]", "result": 0.6, "unit": "nM"}, {"measurement": "IC50", "setting": "[3]", "result": 0.7, "unit": "nM"}]}
{"smiles": "CCN(c1cc(O[C@H]2C[C@H](N3CCCCC3)C2)cc(C(=O)NCc2c(C)cc(C)[nH]c2=O)c1C)C1CCC(F)(F)CC1", "note": "[Example 68, 3-((4,4-difluorocyclohexyl)(ethyl)amino)-N-((4,6-dimethyl-2-oxo-1,2-dihydropyridin-3-yl)methyl)-2-methyl-5-(trans-3-(piperidin-1-yl)cyclobutoxy)benzamide]", "values": [{"measurement": "IC50", "setting": "[1]", "result": 0.6, "unit": "nM"}, {"measurement": "IC50", "setting": "[2]", "result": 1, "unit": "nM"}, {"measurement": "IC50", "setting": "[3]", "result": 1.1, "unit": "nM"}]}
